One substance from patent US20210163580A1 can be followed below.

The target of the experiment is recombinant human RSPO3 protein (human) (UniProt Q9BXY4). Nature of the experiment: BLI (Octet, ForteBio); biotinylated RSPO3 on streptavidin sensors.

With Erbitux (antibody), the Kd (in general, the concentration at which binding is half-saturated) worked out at 976 µM.
